## Antibody variant affinities, Ab-14 light chain, assay B

Values reported by Li et al. 2023, doi:10.1038/s41467-023-39022-2 (FLAb copy).

Antigen: PDVDLGDISGINAS, a 14-residue peptide of the SARS-CoV-2 spike HR2 region.

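This is the validation round: designs drawn from the data on random variants, tested in the same kind of assay. Group labels follow the data file (Ctrl: baseline library sampled from a position-specific scoring matrix, with some repeated check sequences; Rand: our label for a block that the file lists under HC and that is probably the random mutants of the ten best first-round binders; En: ensemble of fine-tuned language models; GP: Gaussian process model; HC: hill climbing; Gen: genetic algorithm; Gibbs: Gibbs sampling; a sequence that several methods proposed may carry one label only). AlphaSeq pools MATa yeast showing the antibodies with MATalpha yeast showing the peptide. After mating in shaken culture at 30 °C for 16 h, diploids were selected and their barcode pairs sequenced. Scores were corrected for input abundance and mapped to Kd with protein pairs of known affinity run in the same pool. Mating was done six times.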

Parent: Ab-14, a human scFv built as VH, three GGGGS repeats, VL. Only the CDRs of the light chain vary.
VH: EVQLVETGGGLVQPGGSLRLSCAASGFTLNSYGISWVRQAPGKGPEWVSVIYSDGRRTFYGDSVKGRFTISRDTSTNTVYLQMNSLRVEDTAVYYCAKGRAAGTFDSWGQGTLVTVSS
VL: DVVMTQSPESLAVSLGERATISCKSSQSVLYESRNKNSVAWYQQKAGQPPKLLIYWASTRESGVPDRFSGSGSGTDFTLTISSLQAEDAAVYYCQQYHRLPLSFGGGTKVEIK

Variants are written as CDR1, CDR2 and CDR3 of the light chain (limits as in the source). Parent: KSSQSVLYESRNKNSVA, WASTRES, QQYHRLPLS.
The Kd shown is the geometric mean over detected replicates; a lower Kd is a better binder.
An entry "nd" has no value in the source: the pair was not observed among the diploids in any replicate. This suggests poor binding but is not conclusive.
Empty control strains, which show no peptide, gave a signal in 4% of pairings with all light chain designs; the median was 430 nM and 95% of these signals were weaker than 38 nM. No background was subtracted.
A sequence measured in both rounds can read differently, since the two assays cover different ranges.
In the paper, a design with two or fewer of six values counts as a poor binder.

| # | CDR-L1 | CDR-L2 | CDR-L3 | group | apparent Kd | replicates with signal |
|---|---|---|---|---|---|---|
| 1 | KFYSAWSGEENNNNNIA | SADTLNH | QQYWTLPLS | En_Gibbs | 430 pM | 6/6 |
| 2 | HISIKEPGNWKMMDSVA | HSSLRAE | QQYWRLPLM | En_Gibbs | 3.1 nM | 6/6 |
| 3 | KSSQSLLYESVNKNSVA | WADTRES | QQYHRIPLS | Ctrl | 91 nM | 5/6 |
| 4 | KLSQSNLYESRNKNSVA | HASTRCS | QQYHRLPLS | GP_Gen | 3.1 nM | 6/6 |
| 5 | KVSQSVLYEQRNKNSVA | NASTRLS | QQYHRLPLS | GP_Gen | 1.7 nM | 6/6 |
| 6 | KLQFLELQLSRNKNSVA | SASTRES | QQYHRLPLS | GP_Gibbs | 160 nM | 3/6 |
| 7 | KSQQSVEYESRNKNNVA | HASTRED | QQYHRLPLS | GP_HC | 76 nM | 6/6 |
| 8 | KLSQSVLYESRNKNSVA | SGSTRES | QQYHRLPLS | GP_Gen | 430 pM | 6/6 |
| 9 | KSSQSILYESGNKNSVA | NASTRES | QQYHRLPLS | GP_HC | 1.5 nM | 6/6 |
| 10 | HVESAWVESNAKKKNVA | NGQGRVE | QQYGRLPLQ | En_Gibbs | 2.5 nM | 6/6 |
| 11 | RLSSELMAGEISYNAIA | NGKVLEY | QQYMRLPLG | En_Gibbs | 2.1 nM | 6/6 |
| 12 | KSSQSDLDESKNDYSVA | WASTRES | QQYHRLPLS | Ctrl | 32 nM | 6/6 |
| 13 | TISQAAQQESHNKNSVA | DLNVRGS | QQYDRLPLS | En_HC | 530 nM | 1/6 |
| 14 | KMSQSVLQEERNDNSVA | SASTRCS | QQYHRLPLS | GP_Gibbs | 1.4 nM | 6/6 |
| 15 | KLSQSWLYESRNKNAVA | EASQRES | QQYHRLPLS | GP_Gen | 1.4 nM | 6/6 |
| 16 | KISQMVNFEGKNKNSVA | QMSTRES | QQYDRLPLS | En_HC | 10 nM | 6/6 |
| 17 | MISQLYNMGQFAINSVA | QASTRME | QQYHRLPLI | En_Gen | 25 nM | 6/6 |
| 18 | KLSMEHGYESRNKNSVA | QASQREE | QQYHRLPLS | GP_Gibbs | 1.3 nM | 6/6 |
| 19 | KPSQSFLYESRNKNSVA | GASTRES | QQYHRLTKS | Rand | nd | 0/6 |
| 20 | KTQQSLLSESNNKNNVA | WASTRES | QRYHRLPLS | Ctrl | 13 nM | 6/6 |
| 21 | KVSQSFLYESRNKNAVA | AASTRES | QQYHRLPLS | GP_HC | 1.0 nM | 6/6 |
| 22 | VSSQSFLYESRNKNSVA | GASTRES | QQYHRLPLS | GP_HC | 1.4 nM | 6/6 |
| 23 | KLYMATGYESRNADSIA | DNSTRGR | QQYHRLPLS | En_HC | 9.3 nM | 6/6 |
| 24 | KSSQSVLFKSRNKNSVA | DDSTREF | QQYHRLPLS | Rand | 3.4 nM | 6/6 |

Second part, the sequence after the result:

| # | apparent Kd | replicates with signal | CDR-L1 | CDR-L2 | CDR-L3 | group |
|---|---|---|---|---|---|---|
| 25 | 81 nM | 1/6 | KISSSVLYETRFKNSVA | WASTRES | QRYHRLPLS | Ctrl |
| 26 | 660 pM | 6/6 | KVQPSWEYEDRNKNSVA | QASQRCS | QQYHRLPLS | GP_Gibbs |
| 27 | 1.1 nM | 6/6 | KLSQSVLYESRNKNSVA | SASQRLS | QQYHRLPLS | GP_Gen |
| 28 | 13 nM | 6/6 | MMSQVTGSGTRHRNNVA | QTSMRET | QQYDRLPLI | En_Gen |
| 29 | 6.3 nM | 6/6 | KWSQSVLYESRNKNSVA | GASTRES | YQYARLPLS | Ctrl |
| 30 | 37 nM | 5/6 | KSLQSVLDEERNDNSVA | WASHRLS | QQYHRLPLS | GP_Gibbs |
| 31 | 5.6 nM | 6/6 | NISIEDVSEHNQANNVA | STDCRCD | QQYFHLPLM | En_Gibbs |
| 32 | 2.3 nM | 6/6 | KISQSQLYEDRNHWSVA | NASTRLS | QQYHRLPLS | GP_Gibbs |
| 33 | 1.3 nM | 6/6 | KCSWSVLFESRNKNSVA | DASTRSS | QQYHRLPLS | GP_HC |
| 34 | nd | 0/6 | FITGNYYDKYQASNSIA | DEAHIRA | QQYDLLPLS | En_Gibbs |
| 35 | 610 pM | 6/6 | KLPQSVLYESRNKNSVA | NASQREQ | QQYHRLPLS | GP_Gen |
| 36 | 1.2 nM | 6/6 | SMSNLGMVPSVWKNSIA | DAEIVEE | QQYSRLPLL | En_Gibbs |
| 37 | 250 pM | 6/6 | KLSGSQLYESRNKNSVA | NASTRES | QQYRRLPLS | GP_Gibbs |
| 38 | 4.0 nM | 6/6 | HVSQSKLQGQRNKNSVA | EASQRER | QQYHRLPLS | GP_Gibbs |
| 39 | 16 nM | 6/6 | HIDIINRGEDLKQDPIA | QADHREQ | QQYFHLPLA | En_Gibbs |
| 40 | 52 nM | 1/6 | KVSSFMRGLMMRTDSIA | DNETRNS | QQYDRLPLS | En_Gen |
| 41 | 1.2 nM | 6/6 | KLYISFLYESRNKNSVA | EASTRES | QQYHRLPLS | GP_HC |
| 42 | 26 nM | 6/6 | KLSQYVLYESRNKNSVA | WASTRES | IQYHRLPLS | Ctrl |
| 43 | 4.7 nM | 6/6 | NISINQADEYAMRNNIA | NTSWKAI | QQYFHLPLM | En_Gibbs |
| 44 | 2.6 nM | 6/6 | KSSQSVLYESRNSNSVA | WASTRVS | QQYHRLPLS | Ctrl |
| 45 | 2.3 nM | 6/6 | TISHSTDLESVHKNSIA | DLMTRES | QQYHRLPLS | En_HC |
| 46 | nd | 0/6 | KSSQSKLYESRSKNSVA | WASTRES | QQYHRLPLS | Ctrl |
| 47 | 1.8 nM | 6/6 | KFSQSVLYEGRTKNSVA | NASTRES | QQYHRLPLS | GP_HC |
| 48 | 770 pM | 6/6 | KLQWYNTYATYSASNIA | DGAQRLN | QQYMRLPLM | En_Gibbs |
| 49 | 500 pM | 6/6 | KLSQSVLYESRNKNSVA | NASTRCV | QQYHRLPLS | GP_Gen |

Again, the first 3 entries without any signal:

| CDR-L1 | CDR-L2 | CDR-L3 | group | apparent Kd | replicates with signal |
|---|---|---|---|---|---|
| KPSQSFLYESRNKNSVA | GASTRES | QQYHRLTKS | Rand | nd | 0/6 |
| FITGNYYDKYQASNSIA | DEAHIRA | QQYDLLPLS | En_Gibbs | nd | 0/6 |
| KSSQSKLYESRSKNSVA | WASTRES | QQYHRLPLS | Ctrl | nd | 0/6 |